Data taken from US20070014810A1, “Inducing cellular immune responses to human papillomavirus using peptide and nucleic acid compositions” (priority 2003, published 2007).

The chains behind the UniProt entries cited, without tags or fusion partners. Residues count along the entry.
UniProt P01920, 33-261: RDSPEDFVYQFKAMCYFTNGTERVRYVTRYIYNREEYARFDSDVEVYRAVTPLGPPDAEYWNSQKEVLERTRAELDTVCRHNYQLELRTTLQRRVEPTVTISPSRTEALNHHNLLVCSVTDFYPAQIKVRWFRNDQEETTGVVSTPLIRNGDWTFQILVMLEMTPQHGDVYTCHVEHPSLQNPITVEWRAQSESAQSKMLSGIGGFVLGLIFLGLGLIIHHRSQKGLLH

Key:
HLA-DQB1*0301 = HLA-DQB1*0301 (Homo sapiens, UniProt P01909+P01920); assay: biochemical
HLA-A*0101 = HLA-A*0101 (Homo sapiens, UniProt P04439, A114D/A174V/A182V/D101N/D185E/E176A/E190D/L180R/Q94H/R68K/S129P/T187R/V100A/V91M/W191G); assay: biochemical

| Compound | IC50 (HLA-DQB1*0301) | IC50 (HLA-A*0101) |
| --- | --- | --- |
| C[C@H](NC(=O)[C@H](C)NC(=O)[C@H](Cc1c[nH]cn1)NC(=O)[C@H](C)NC(=O)[C@H](C)NC(=O)[C@H](Cc1c[nH]cn1)NC(=O)[C@H](C)NC(=O)[C@H](C)NC(=O)[C@H](Cc1c[nH]cn1)NC(=O)[C@H](C)NC(=O)[C@H](C)NC(=O)[C@H](Cc1c[nH]cn1)NC(=O)[C@H](C)NC(=O)[C@H](C)NC(=O)[C@H](Cc1c[nH]cn1)NC(=O)[C@H](C)NC(=O)[C@@H](N)Cc1ccc(O)cc1)C(=O)O | 21 nM | – |
| CC(C)C[C@H](NC(=O)[C@@H]1CCCN1C(=O)[C@@H](NC(=O)[C@@H](NC(=O)[C@H](C)NC(=O)[C@@H](NC(=O)[C@@H](N)Cc1ccc(O)cc1)[C@@H](C)O)C(C)C)C(C)C)C(=O)N[C@H](C(=O)N[C@@H](Cc1ccc(O)cc1)C(=O)O)C(C)C | – | 5 nM |
